Experimental data from article PMC9804470, “A Formylglycine‐Peptide for the Site‐Directed Identification of Phosphotyrosine‐Mimetic Fragments” (Chemistry (Weinheim an Der Bergstrasse, Germany), 2022).
pIC50: −log10 of the molar value.

The chains behind the UniProt entries cited, without tags or fusion partners. Residues count along the entry.
UniProt P18031, 1-321 limits assumed: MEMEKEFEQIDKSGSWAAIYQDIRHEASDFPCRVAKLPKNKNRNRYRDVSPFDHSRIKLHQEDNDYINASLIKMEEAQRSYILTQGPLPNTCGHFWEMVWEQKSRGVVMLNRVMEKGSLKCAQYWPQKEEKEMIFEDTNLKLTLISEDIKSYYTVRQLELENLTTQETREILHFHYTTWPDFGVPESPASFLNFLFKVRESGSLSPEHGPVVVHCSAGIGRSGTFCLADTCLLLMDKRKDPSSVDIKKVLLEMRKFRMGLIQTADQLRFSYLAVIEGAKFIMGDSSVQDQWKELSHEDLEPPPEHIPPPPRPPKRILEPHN
UniProt Q06124, 225-541 limits assumed: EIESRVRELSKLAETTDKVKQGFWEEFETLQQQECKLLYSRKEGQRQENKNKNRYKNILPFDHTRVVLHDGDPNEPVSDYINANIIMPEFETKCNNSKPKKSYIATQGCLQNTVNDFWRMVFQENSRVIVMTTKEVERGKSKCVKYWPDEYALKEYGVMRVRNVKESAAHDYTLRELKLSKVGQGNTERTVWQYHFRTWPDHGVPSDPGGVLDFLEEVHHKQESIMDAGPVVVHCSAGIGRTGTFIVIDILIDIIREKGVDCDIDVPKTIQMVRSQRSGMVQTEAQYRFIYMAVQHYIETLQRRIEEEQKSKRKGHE

Tests used:
[1] = target: catalytic domain of human PTP1B (Homo sapiens, UniProt P18031); experiment: Enzyme activity assay of PTP1B with fluorogenic substrate DiFMUP; conditions: read-out: IC50 PTP1B, hydrazine fragments alone, Supporting Table 1
[2] = target: catalytic domain of human SHP2 (Homo sapiens, UniProt Q06124); experiment: Enzyme activity assay of SHP2 catalytic domain with fluorogenic substrate DiFMUP; type: biochemical; conditions: read-out: IC50 SHP2, hydrazine fragments alone, Supporting Table 1

SMILES | pIC50 [1] | pIC50 [2]
NNc1ccc(C(F)(F)F)cc1 | < 3.60 | < 3.60
NNc1cc(Br)c(S(=O)(=O)O)cc1Br | 3.61 | 4.11
NNc1ccc(S(=O)(=O)O)cc1Cl | 4.54 | 4.13
NNc1cc(Cl)c(S(=O)(=O)O)cc1Cl | < 3.60 | 5.37
NNc1cc(F)c(S(=O)(=O)O)cc1F | < 3.60 | 4.90
